Results on one compound are retold here after US20170290821A1 (priority 2014, published 2017).

The subject of the data set is HEK293 cells or A549 cells.

As for `N#CC[C@H](C1CCCC1)n1cc(-c2ncnc3[nH]ccc23)cn1` [Ruxolitinib], the cytotoxicity result was “did not show remarkable cytotoxicity” and the “toxicity to host cells” value was “relatively low toxicity to host cells”.
